The record followed here is publication PMC11200976, “Pitavastatin Calcium Confers Fungicidal Properties to Fluconazole by Inhibiting Ubiquinone Biosynthesis and Generating Reactive Oxygen Species” (Antioxidants, 2024).

In one test the test system is C. albicans. Nature of the test: Broth microdilution assay of synergistic lethality with 4 μg/mL FLC (recovery on drug-free YPD).
Conditions: not given
Take `CC(C)C[C@H](NC(=O)[C@H](Cc1ccccc1)NC(=O)c1cnccn1)B(O)O` [Bortezomib]: the Synergistic lethal concentrations turned out to be 100 µM.
As for `C[C@@H](Oc1cc(-c2cnn(C3CCNCC3)c2)cnc1N)c1c(Cl)ccc(F)c1Cl` [Crizotinib], the Synergistic lethal concentrations amounted to 100 µM.
Same read-out and setting: for `CCN(CC)CCNC(=O)c1c(C)[nH]c(/C=C2\C(=O)Nc3ccc(F)cc32)c1C` [Sunitinib] the value was 100 µM.
For the compound (S)-Crizotinib, the Synergistic lethal concentrations worked out at 100 µM.
In the case of Bleomycin (hydrochloride), the Synergistic lethal concentrations was 3.125 µM.
In the case of Crizotinib (hydrochloride), the Synergistic lethal concentrations worked out at 100 µM.
In the case of Vinorelbine (ditartrate), the Synergistic lethal concentrations stood at 100 µM.

Staying with this test, now noted: concentration of the compound that is synergistically lethal with 4 μg/mL FLC; C. albicans; recovery on drug-free YPD.
For the compound `CC(C)COc1ccc(CNC(=O)N(Cc2ccc(F)cc2)C2CCN(C)CC2)cc1` [Pimavanserin], the Synergistic lethal concentrations turned out to be 12.5 µM.
As for Colistin (sulfate), the Synergistic lethal concentrations came out at 12.5 µM.
